Results on 104 compounds are retold here after PubChem BioAssay AID2016 (NMMLSC, 2009).

Structures are written as SMILES. This is a selection; strong and weak results do not stand in their true shares. The source made the active and inactive calls.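 Rule for the calls: active = GFP response versus DMSO above a set limit, roughly screen mean plus 3 SD (cut at about 180% in these data); inconclusive = fewer than 70 cells counted for a yeast strain; inactive = the rest.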

The assay is described as follows: TOR pathway GLN3 branch reporter MEP2-GFP changes – S. cerevisiae, multiplex flow cytometry, MLPCN library, primary screen (AID 2016).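 Note: median GFP fluorescence of the barcode-gated MEP2-GFP cells per well.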 To be noted: S. cerevisiae MEP2-GFP strain, 3 h, at 10 µM, stronger effect = higher value, 100% = DMSO control level. Background: A flow cytometer gives signals particle by particle.
In the case of `O=C(O)CNc1ccc([As](=O)(O)O)cc1`, the GFP response vs DMSO is inactive: 98.8%. In the case of `O=[N+]([O-])c1cccc(NC2=NCC(CBr)S2)c1` (centres undefined), the GFP response vs DMSO is inactive: 111%. To `O=[N+]([O-])c1ncn(CCn2ncnc2[N+](=O)[O-])n1` belongs inactive: 89.9%; to `CC(C)(C)C(=O)NC(Sc1ccncn1)C(Cl)(Cl)Cl` (centres undefined), inactive: 102%. To `O=C(Nc1cc([As](=O)(O)O)ccc1O)c1ccccc1` belongs inactive: 99.7%; to `CC1CCN(C(=O)Oc2c(Cl)cc(Cl)c3cccnc23)CC1`, inactive: 98.7%.

With `CC(C)=N/N=C(\N)N[N+](=O)[O-]`, the GFP response vs DMSO was inactive: 101%.

With `CN(C)C(=O)OCCc1n(C)cc[n+]1C`, the GFP response vs DMSO is inactive: 101%. For the compound `CCN(/C(=N/P(=O)(N1CCOCC1)N1CCOCC1)N1CCOCC1)c1ccc(OC)cc1`, the GFP response vs DMSO is inactive: 99.8%. As for `Nc1ccc([As](=O)(O)c2ccc(N)cc2)cc1`, the figure is inactive: 96.8%; as for `C[N+]1=C2C=CC=CC=C2SC12C([N+](=O)[O-])=CC([N+](=O)[O-])=C[C-]2[N+](=O)[O-]` (centres undefined), inactive: 99.9%. To `Cc1ccc(NP(=O)(Oc2ccccc2)Oc2ccccc2)nc1` belongs inactive: 95.2%; to `CCc1nc2c(n1)c1c(non1O)c1c2no[n+]1[O-]`, inactive: 107%.

Turning to `O=[N+]([O-])c1cc([N+](=O)[O-])c(CCNc2ccccc2)c([N+](=O)[O-])c1`, the GFP response vs DMSO is inactive: 98.1%. On to `O=[N+]([O-])c1cccc2n[nH]nc12`, for which the GFP response vs DMSO was inactive: 103%. Turning to `CC(=O)N1C2C3N(C(C)=O)C1C1N(C(C)=O)C(C(N1C(C)=O)N3C(C)=O)N2C(C)=O`, the GFP response vs DMSO is inactive: 103%.

Consider `COc1ccc(C2=NCC(CBr)S2)cc1` (centres undefined), for which the GFP response vs DMSO is inactive: 110%. On to `Oc1ccccc1CNc1ccccn1`, for which the GFP response vs DMSO is inactive: 96.9%. Turning to `Cc1c2non([O-])c-2c(C)[n+](=O)[n+]1[O-]`, the GFP response vs DMSO was inactive: 101%. Regarding `O=C(NC(Sc1ccncn1)C(Cl)(Cl)Cl)c1ccccc1` (centres undefined), the GFP response vs DMSO is inactive: 104%. Regarding `CC(C)CC(=O)NC(Sc1ccc(Cl)cc1)C(Cl)(Cl)Cl` (centres undefined), the GFP response vs DMSO was inactive: 105%.

For `Nc1cc(N)c2nonc2c1[N+](=O)[O-]`, the GFP response vs DMSO is inactive: 99.1%. As for `Clc1ccc(Cl)c(NC2=NCC(CBr)S2)c1` (centres undefined), the figure is inactive: 96.9%; as for `CN1CCCC(OC(=O)C(c2ccccc2)c2ccccc2)C1` (centres undefined), inactive: 102%; as for `COc1ccccc1OP(=O)(Nc1ccc(C)cn1)Oc1ccccc1OC`, inactive: 104%.

For the compound `Cc1ccc(OP(=O)(Nc2nccs2)Oc2ccc(C)cc2)cc1`, the GFP response vs DMSO is inactive: 99.8%. To `CN(C(=O)Cc1ccc(Cl)c(Cl)c1)[C@H]1CCCC[C@H]1N1CCCC1` belongs inactive: 101%; to `Cc1ccc(N/C(=N/P(=O)(N2CCOCC2)N2CCOCC2)N2CCOCC2)cc1`, inactive: 100%; to `NC(=O)c1cc([N+](=O)[O-])cc([N+](=O)[O-])c1N`, inactive: 97%. In the case of `Nc1cccc2ccc([As](=O)(O)O)cc12`, the GFP response vs DMSO is inactive: 105%. `CCN(N=Nc1nonc1N)c1nonc1N`: the GFP response vs DMSO was inactive: 108%. On to `O=[N+]([O-])c1cc([N+](=O)[O-])c(CCN2CCOCC2)c([N+](=O)[O-])c1`, for which the GFP response vs DMSO was inactive: 102%. Turning to `CCOP(=O)(Nc1ccccc1)OCC`, the GFP response vs DMSO was inactive: 106%. As for `Cc1cc(SC(NC(=O)c2ccc(F)cc2)C(Cl)(Cl)Cl)ncn1` (centres undefined), the figure is inactive: 96.9%; as for `Cc1ccc(NP(=O)(Oc2ccccc2F)Oc2ccccc2F)nc1`, inactive: 104%; as for `CN(C(=O)Cc1ccc(Cl)c(Cl)c1)[C@H]1CCCC[C@@H]1N1CCCC1`, inactive: 99.8%. To `O=P(Nc1nc2ccc(Cl)cc2s1)(c1ccccc1)c1ccccc1` belongs inactive: 99.6%. In the case of `O=C(O)c1ccccc1[As](=O)(O)O`, the GFP response vs DMSO was inactive: 95.2%. As for `CC(=O)Nc1ccc([As](=O)(O)O)cc1`, the GFP response vs DMSO is inactive: 95.2%.

Consider `Cc1ccccc1OP(=O)(Nc1ccccn1)Oc1ccccc1C`, for which the GFP response vs DMSO is inactive: 104%. Turning to `CC(NC(=O)COC(=O)C(O)(c1ccccc1)c1ccccc1)c1ccccc1` (centres undefined), the GFP response vs DMSO is inactive: 100%. For `CN(C)C(=O)Oc1noc2ccccc12`, the GFP response vs DMSO is inactive: 86.3%. `O=C(OC1CN2CCC1CC2)c1ccccc1` (centres undefined): the GFP response vs DMSO is inactive: 108%. Take `CCC(=O)N1C2C3N(C(=O)CC)C1C1N(C(=O)CC)C(C(N1C(=O)CC)N3C(=O)CC)N2C(=O)CC`: the GFP response vs DMSO is inactive: 104%. Take `COC(=O)c1cc2c(s1)N=C(c1ccccc1)N(C)P2(=O)N1CCOCC1` (centres undefined): the GFP response vs DMSO was inactive: 106%. As for `CC(=O)NC(SC(=S)N(CC(C)C)CC(C)C)C(Cl)(Cl)Cl` (centres undefined), the figure is inactive: 93%.

With `Cc1ccc(OP(=O)(Nc2ccccn2)Oc2ccc(C)cc2)cc1`, the GFP response vs DMSO is inactive: 97.2%.

Regarding `c1ccc(-c2nn[nH]n2)c(-c2nn[nH]n2)c1`, the GFP response vs DMSO is inactive: 97.4%.

As to `Cc1ccc(NP(=O)(Oc2cccc(C)c2)Oc2cccc(C)c2)nc1`, the GFP response vs DMSO is inactive: 104%. `CCOC(=O)NC(Sc1ccccc1)C(Cl)(Cl)Cl` (centres undefined): the GFP response vs DMSO is inactive: 98.9%.

Turning to `CCNC(=S)/N=C(\N)N[N+](=O)[O-]`, the GFP response vs DMSO was inactive: 98.7%. To `O=C(NC1CCS(=O)(=O)C1)NP(=S)(Oc1ccccc1)Oc1ccccc1` (centres undefined) belongs inactive: 99.6%. As for `CC(=O)Nc1ccc([As](=O)(O)O)c(O)c1`, the figure is inactive: 108%; as for `CC(=O)Nc1ccc(Oc2c([N+](=O)[O-])cc([N+](=O)[O-])cc2[N+](=O)[O-])cc1`, inactive: 87.6%. In the case of `Cc1ccccc1CN(C)C(=O)COC(=O)C(O)(c1ccccc1)c1ccccc1`, the GFP response vs DMSO is inactive: 102%.

`C[C@@H]1C=CCP(=O)(Oc2ccccc2)O1` (some centres undefined): the GFP response vs DMSO was inactive: 96.1%. In the case of `C[C@H]1OP(=O)(Oc2ccccc2)C[C@@H]2O[C@@H]21` (some centres undefined), the GFP response vs DMSO was inactive: 95.5%. `CC(=O)c1ccc(N2CC2c2ccncc2)cc1` (centres undefined): the GFP response vs DMSO was inactive: 97.8%. For `CC(C)(C)C(=O)NC(Sc1ccccc1)C(Cl)(Cl)Cl` (centres undefined), the GFP response vs DMSO was inactive: 78.7%. To `O=P1(Nc2nc3ccc(Cl)cc3s2)COc2ccccc2O1` (centres undefined) belongs inactive: 98.4%.

Turning to `CCOc1ccc(C2=NCC(CBr)S2)cc1` (centres undefined), the GFP response vs DMSO was inactive: 97.5%.

Consider `c1nnnn1CCn1cnnn1`, for which the GFP response vs DMSO is inactive: 105%.

As to `CC(C)C(=O)NC(Sc1ccccc1)C(Cl)(Cl)Cl` (centres undefined), the GFP response vs DMSO was inactive: 98.5%.

In the case of `O=P(Nc1nccs1)(c1ccccc1)c1ccccc1`, the GFP response vs DMSO is inactive: 105%. On to `O=C(OC1CN2CCC1CC2)c1cccc(Cl)c1` (centres undefined), for which the GFP response vs DMSO is inactive: 99.9%. With `Nc1ccc([As](=O)(O)c2ccc([N+](=O)[O-])cc2)cc1`, the GFP response vs DMSO was inactive: 101%. Consider `C(Cc1nn[nH]n1)Cc1nn[nH]n1`, for which the GFP response vs DMSO was inactive: 97%.

For the compound `O=[As](O)(c1ccccc1)c1ccc(O)cc1`, the GFP response vs DMSO was inactive: 92.4%.

Regarding `O=[N+]([O-])c1ccc(O)c(/C=N/Nc2ccc([N+](=O)[O-])cc2[N+](=O)[O-])c1`, the GFP response vs DMSO is inactive: 104%. For `CC(=O)NC(SC(=S)N(C)C)C(Cl)(Cl)Cl` (centres undefined), the GFP response vs DMSO is inactive: 104%.

On to `O=[N+]([O-])c1ncn(CCn2cnc([N+](=O)[O-])n2)n1`, for which the GFP response vs DMSO is inactive: 104%. As to `O=P(Nc1nc2ccccc2s1)(c1ccccc1)c1ccccc1`, the GFP response vs DMSO was inactive: 98%. Regarding `C[C@H]1OP(=O)(Oc2ccccc2)[C@H](O)[C@H](O)[C@H]1N=[N+]=[N-]` (some centres undefined), the GFP response vs DMSO is inactive: 99.2%. As to `O=P(Nc1ccccn1)(c1ccc(Br)cc1)c1ccc(Br)cc1`, the GFP response vs DMSO is inactive: 102%. To `CN(C)C1(CNC(=O)c2ccc(Cl)c(S(N)(=O)=O)c2)CCCCC1` belongs inactive: 103%; to `Nc1cccc([As](=O)(O)c2ccccc2)c1`, inactive: 85.6%; to `O=P1(Nc2ccc(Br)cn2)COc2ccccc2OC1`, inactive: 111%. Turning to `NS(=O)(=O)c1cccc(NC(=O)COC(=O)C(O)(c2ccccc2)c2ccccc2)c1`, the GFP response vs DMSO is inactive: 95.5%.

Regarding `Cc1ccc(OCC(=O)OC2CN3CCC2CC3)cc1` (centres undefined), the GFP response vs DMSO was inactive: 96.1%. Regarding `O=[As](O)(c1cccs1)c1cccs1`, the GFP response vs DMSO is inactive: 103%.

Turning to `O=P1(Nc2ncccn2)COc2ccccc2OC1`, the GFP response vs DMSO was inactive: 109%. To `CN(C)C1(CNC(=O)c2ccc(S(C)(=O)=O)cc2)CCCCC1` belongs inactive: 102%; to `O=C(/C=C/c1ccccc1)OC1CN2CCC1CC2` (centres undefined), inactive: 96.5%; to `Cc1nn(-c2ccccc2)c2c1P(=O)(N1CCOCC1)N(C)C(c1ccccc1)=N2` (centres undefined), inactive: 102%. With `CC1CCC(C(C)C)C(OP(=O)(Nc2ccccn2)c2ccccc2)C1` (centres undefined), the GFP response vs DMSO was inactive: 100%.

For the compound `Cc1ccc(C(=O)OC2CN3CCC2CC3)cc1` (centres undefined), the GFP response vs DMSO was inactive: 94.1%.

On to `CC(C)/C=N\N=C(\N)N[N+](=O)[O-]`, for which the GFP response vs DMSO is inactive: 103%. For `CN(C(=O)Cc1ccc(Cl)c(Cl)c1)[C@@H]1CCCC[C@H]1N1CCCC1`, the GFP response vs DMSO was inactive: 96.7%. To `O=[As](O)(c1ccccc1Br)c1ccccc1Br` belongs inactive: 104%; to `CC1(CBr)Cn2c(nc3ccccc3c2=O)S1` (centres undefined), inactive: 111%; to `COc1ccccc1CNC(=O)COC(=O)C(O)(c1ccccc1)c1ccccc1`, inactive: 92.4%.

Take `Clc1n[nH]nc1-c1nn[nH][15n]1`: the GFP response vs DMSO was inactive: 97.6%. To `CC(C)(C)C(=O)NC(Sc1ncccn1)C(Cl)(Cl)Cl` (centres undefined) belongs inactive: 91.7%. With `O=P1(Nc2ccccn2)COc2ccccc2OC1`, the GFP response vs DMSO was inactive: 101%. To `CCC1=CC2Cc3nc4ccc(Cl)cc4c(N)c3C(C1)C2` (centres undefined) belongs inactive: 108%. As for `CCOP(=O)(NC(=NC(C)c1ccccc1)NC(C)c1ccccc1)OCC` (centres undefined), the figure is inactive: 95.5%; as for `CN(CCCl)Cc1cc(Cl)c(NC2=NCCN2)c(Cl)c1`, inactive: 100%; as for `CCOP(=O)(Nc1ccc(C)cn1)OCC`, inactive: 107%. As for `COc1cc(C2NCCC3(OCCO3)C2(C)C)cc(OC)c1OC` (centres undefined), the GFP response vs DMSO is inactive: 101%.

As to `CCOP(=O)(Nc1cccc2ccccc12)OCC`, the GFP response vs DMSO was inactive: 166%. Consider `Cc1ccc(NCCc2c([N+](=O)[O-])cc([N+](=O)[O-])cc2[N+](=O)[O-])cc1`, for which the GFP response vs DMSO is inactive: 99.6%. For `Nc1cccc2c([As](=O)(O)O)cccc12`, the GFP response vs DMSO is inactive: 102%. Take `CCCOP(=S)(Nc1nc(N)cc(=O)[nH]1)OCCC`: the GFP response vs DMSO is inactive: 100%.

As to `O=[As](O)(c1cccc(O)c1)c1cccc(O)c1`, the GFP response vs DMSO was inactive: 103%.
